Assay results taken from ChEMBL document CHEMBL5257114, “Discovery of imidazo[1,2-b]pyridazine macrocyclic derivatives as novel ALK inhibitors capable of combating multiple resistant mutants” (Bioorg Med Chem Lett, 2023).

Protein sequences, listed by entry. Tags and fused reporters are not part of them. Lines headed by an entry give the natural chain unless they say otherwise; changes in a name come on top.
UniProt Q15375: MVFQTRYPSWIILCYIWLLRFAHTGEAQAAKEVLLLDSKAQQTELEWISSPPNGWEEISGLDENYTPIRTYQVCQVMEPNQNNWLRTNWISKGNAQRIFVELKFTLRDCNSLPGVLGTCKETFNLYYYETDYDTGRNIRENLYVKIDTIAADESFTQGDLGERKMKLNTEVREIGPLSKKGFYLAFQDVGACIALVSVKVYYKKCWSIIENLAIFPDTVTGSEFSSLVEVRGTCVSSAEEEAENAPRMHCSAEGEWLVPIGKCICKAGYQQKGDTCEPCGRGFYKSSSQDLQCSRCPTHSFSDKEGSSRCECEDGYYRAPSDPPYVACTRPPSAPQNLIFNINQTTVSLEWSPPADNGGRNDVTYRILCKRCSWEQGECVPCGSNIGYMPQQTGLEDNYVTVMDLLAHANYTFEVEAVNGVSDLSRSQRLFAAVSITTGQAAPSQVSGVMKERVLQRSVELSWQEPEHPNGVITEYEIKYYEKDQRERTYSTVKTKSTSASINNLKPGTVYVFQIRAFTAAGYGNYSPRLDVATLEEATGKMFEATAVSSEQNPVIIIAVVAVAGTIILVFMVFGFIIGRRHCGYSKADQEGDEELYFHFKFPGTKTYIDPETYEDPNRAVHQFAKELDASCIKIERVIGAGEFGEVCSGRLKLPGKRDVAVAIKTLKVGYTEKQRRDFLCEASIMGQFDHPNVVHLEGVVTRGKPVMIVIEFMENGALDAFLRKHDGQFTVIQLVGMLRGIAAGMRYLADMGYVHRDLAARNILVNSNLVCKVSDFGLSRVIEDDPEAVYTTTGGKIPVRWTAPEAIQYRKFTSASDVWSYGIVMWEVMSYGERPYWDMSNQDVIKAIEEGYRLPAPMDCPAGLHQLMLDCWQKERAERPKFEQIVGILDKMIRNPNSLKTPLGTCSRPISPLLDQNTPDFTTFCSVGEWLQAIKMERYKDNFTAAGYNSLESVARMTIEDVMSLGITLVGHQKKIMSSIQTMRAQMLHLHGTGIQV
UniProt P41240: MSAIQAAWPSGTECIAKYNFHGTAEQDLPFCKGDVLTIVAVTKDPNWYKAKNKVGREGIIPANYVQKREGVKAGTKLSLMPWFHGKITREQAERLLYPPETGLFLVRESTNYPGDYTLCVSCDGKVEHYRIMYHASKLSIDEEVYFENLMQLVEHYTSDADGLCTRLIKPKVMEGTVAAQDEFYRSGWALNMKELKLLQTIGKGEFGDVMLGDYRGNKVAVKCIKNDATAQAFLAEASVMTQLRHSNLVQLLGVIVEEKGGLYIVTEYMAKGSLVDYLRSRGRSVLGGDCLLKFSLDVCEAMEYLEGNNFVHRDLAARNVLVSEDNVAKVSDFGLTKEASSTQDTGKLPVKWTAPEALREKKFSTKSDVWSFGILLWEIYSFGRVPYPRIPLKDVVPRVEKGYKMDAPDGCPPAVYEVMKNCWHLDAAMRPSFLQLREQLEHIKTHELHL
UniProt P07333, whole entry: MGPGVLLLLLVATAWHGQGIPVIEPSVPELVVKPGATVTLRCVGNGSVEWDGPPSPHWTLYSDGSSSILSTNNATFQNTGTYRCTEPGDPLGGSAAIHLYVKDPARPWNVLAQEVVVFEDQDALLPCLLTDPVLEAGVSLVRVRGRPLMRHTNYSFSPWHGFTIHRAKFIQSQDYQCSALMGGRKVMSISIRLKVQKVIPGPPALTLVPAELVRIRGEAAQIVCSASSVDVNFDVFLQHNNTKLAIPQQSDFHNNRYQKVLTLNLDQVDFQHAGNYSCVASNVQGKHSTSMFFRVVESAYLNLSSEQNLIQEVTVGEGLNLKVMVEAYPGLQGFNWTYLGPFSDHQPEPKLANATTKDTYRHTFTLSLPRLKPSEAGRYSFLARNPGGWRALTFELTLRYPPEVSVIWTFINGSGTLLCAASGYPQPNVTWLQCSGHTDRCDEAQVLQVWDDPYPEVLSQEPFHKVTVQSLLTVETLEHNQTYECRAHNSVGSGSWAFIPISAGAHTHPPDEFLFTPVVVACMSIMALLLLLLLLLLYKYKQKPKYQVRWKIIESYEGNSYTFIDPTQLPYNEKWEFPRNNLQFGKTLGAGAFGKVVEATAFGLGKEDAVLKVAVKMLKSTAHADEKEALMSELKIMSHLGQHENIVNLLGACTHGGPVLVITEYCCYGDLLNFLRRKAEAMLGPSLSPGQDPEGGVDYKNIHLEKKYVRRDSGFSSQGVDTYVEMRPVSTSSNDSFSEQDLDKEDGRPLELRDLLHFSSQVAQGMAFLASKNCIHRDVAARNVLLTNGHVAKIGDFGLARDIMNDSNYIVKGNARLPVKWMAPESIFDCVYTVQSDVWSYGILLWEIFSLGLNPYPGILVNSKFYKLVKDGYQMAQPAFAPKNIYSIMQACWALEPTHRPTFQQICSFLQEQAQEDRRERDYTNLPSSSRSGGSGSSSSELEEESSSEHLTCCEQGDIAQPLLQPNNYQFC
UniProt P07947, whole entry, looked up: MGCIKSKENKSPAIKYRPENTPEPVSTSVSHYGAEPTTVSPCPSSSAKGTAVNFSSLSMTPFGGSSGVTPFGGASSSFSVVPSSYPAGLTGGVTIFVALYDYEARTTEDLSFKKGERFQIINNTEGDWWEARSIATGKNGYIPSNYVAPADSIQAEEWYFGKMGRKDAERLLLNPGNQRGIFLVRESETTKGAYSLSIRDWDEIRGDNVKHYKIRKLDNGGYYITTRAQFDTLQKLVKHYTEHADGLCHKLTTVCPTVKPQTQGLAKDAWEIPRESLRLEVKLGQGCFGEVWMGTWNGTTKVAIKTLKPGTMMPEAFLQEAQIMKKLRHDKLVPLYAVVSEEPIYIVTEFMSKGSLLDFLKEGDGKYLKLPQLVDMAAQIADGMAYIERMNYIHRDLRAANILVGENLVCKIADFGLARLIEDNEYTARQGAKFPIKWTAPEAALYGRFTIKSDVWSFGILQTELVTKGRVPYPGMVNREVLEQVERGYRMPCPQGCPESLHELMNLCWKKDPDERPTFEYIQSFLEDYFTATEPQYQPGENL
UniProt P23458: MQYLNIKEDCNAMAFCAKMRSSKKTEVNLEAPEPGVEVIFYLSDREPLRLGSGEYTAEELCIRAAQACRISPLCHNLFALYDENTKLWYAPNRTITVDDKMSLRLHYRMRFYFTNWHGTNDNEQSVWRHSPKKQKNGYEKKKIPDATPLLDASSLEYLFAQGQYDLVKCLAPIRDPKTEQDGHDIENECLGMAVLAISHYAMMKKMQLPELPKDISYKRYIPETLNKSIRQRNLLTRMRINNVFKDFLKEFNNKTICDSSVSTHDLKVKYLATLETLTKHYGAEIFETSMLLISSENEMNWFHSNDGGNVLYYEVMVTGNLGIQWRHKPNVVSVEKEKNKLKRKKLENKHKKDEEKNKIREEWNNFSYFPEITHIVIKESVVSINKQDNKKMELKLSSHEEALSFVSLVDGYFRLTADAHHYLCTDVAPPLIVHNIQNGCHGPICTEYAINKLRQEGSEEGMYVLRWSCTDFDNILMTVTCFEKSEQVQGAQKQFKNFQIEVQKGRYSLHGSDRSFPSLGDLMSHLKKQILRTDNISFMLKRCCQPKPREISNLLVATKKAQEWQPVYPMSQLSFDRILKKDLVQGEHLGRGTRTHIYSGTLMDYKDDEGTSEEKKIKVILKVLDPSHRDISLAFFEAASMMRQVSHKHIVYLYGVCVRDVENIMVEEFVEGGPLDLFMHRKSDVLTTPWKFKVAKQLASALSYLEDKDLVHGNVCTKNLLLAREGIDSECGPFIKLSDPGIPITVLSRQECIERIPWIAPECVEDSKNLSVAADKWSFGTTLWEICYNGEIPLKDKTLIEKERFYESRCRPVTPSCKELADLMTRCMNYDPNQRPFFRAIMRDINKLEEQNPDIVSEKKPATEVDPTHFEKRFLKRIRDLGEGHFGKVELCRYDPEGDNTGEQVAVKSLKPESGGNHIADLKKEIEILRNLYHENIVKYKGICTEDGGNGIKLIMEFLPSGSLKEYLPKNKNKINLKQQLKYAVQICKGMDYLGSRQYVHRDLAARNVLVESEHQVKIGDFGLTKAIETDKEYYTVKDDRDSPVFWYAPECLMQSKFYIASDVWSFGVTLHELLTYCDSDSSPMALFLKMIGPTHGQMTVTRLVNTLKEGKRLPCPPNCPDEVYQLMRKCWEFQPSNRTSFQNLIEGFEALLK
UniProt P16234: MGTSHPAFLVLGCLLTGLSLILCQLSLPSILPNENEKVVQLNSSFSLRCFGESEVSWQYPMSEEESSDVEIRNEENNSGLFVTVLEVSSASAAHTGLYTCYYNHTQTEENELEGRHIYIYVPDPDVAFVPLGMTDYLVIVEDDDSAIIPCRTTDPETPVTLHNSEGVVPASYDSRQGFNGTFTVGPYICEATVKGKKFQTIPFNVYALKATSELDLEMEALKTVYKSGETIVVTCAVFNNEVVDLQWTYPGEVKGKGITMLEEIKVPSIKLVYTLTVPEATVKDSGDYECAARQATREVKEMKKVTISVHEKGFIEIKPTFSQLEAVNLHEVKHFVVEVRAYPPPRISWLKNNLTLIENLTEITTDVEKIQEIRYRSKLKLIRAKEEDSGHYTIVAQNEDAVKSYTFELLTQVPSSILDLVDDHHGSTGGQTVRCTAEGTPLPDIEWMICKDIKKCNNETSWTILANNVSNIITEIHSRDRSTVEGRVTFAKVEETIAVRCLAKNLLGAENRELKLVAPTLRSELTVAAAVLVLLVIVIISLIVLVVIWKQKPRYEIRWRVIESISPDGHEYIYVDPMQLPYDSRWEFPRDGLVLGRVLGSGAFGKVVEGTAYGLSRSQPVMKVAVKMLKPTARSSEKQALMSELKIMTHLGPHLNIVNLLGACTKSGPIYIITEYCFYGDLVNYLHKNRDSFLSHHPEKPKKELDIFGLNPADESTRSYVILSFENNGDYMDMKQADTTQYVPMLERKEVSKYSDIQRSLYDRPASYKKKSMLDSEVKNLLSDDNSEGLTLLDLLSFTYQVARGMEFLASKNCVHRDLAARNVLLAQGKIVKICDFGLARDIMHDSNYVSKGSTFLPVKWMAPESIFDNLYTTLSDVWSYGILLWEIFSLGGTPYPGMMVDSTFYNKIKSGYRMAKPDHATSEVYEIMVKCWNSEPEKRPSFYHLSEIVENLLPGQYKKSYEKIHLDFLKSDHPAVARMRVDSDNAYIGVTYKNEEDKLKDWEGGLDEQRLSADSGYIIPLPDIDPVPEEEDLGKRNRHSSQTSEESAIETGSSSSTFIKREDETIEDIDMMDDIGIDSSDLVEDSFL
UniProt P08581: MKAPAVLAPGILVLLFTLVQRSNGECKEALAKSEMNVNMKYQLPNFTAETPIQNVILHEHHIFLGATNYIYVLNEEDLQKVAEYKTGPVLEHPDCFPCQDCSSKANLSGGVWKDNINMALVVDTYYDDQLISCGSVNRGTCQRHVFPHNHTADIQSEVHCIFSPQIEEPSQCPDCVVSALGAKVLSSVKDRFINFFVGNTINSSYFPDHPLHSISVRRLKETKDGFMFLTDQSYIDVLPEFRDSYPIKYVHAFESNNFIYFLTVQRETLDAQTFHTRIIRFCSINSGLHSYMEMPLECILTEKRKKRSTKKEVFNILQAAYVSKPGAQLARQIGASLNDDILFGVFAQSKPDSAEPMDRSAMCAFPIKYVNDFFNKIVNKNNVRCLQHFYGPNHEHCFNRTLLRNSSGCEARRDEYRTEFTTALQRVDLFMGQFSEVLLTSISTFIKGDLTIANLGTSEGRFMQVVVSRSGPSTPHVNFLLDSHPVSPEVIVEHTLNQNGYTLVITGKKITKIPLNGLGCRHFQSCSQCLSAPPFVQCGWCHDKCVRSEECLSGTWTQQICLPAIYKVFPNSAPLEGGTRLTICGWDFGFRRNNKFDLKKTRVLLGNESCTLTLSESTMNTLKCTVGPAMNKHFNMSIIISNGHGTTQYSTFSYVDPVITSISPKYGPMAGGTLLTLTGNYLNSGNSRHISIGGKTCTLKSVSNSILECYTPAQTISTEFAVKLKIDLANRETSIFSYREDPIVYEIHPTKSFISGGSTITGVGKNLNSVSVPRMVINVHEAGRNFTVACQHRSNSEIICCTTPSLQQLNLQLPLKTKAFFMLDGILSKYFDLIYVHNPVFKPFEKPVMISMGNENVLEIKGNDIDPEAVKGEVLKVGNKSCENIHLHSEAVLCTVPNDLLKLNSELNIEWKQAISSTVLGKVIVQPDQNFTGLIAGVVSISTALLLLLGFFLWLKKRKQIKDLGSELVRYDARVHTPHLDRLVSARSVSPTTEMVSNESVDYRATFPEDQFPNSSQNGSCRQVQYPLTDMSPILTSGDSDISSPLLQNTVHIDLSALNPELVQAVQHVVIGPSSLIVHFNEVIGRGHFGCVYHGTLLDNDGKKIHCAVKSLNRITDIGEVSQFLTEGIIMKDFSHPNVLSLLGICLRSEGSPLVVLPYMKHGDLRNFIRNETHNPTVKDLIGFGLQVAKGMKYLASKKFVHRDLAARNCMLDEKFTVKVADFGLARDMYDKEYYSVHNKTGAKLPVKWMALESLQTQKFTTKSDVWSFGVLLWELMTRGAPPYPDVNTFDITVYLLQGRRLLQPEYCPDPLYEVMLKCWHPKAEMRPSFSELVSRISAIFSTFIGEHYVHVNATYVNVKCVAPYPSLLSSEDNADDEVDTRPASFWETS

Columns and labels:
[1] = target: Proto-oncogene tyrosine-protein kinase Src (Homo sapiens) (UniProt P12931); assay: Inhibition of SRC (unknown origin) at 1 uM relative to control
[2] = target: Proto-oncogene tyrosine-protein kinase ROS (Homo sapiens) (UniProt P08922); assay: Inhibition of ROS (unknown origin) at 1 uM relative to control
[3] = target: Tyrosine-protein kinase Fes/Fps (Homo sapiens) (UniProt P07332); assay: Inhibition of FES (unknown origin) at 1 uM relative to control
[4] = target: Ephrin type-A receptor 7 (Homo sapiens) (UniProt Q15375); assay: Inhibition of EPHA7 (unknown origin) at 1 uM relative to control
[5] = target: Ephrin type-A receptor 3 (Homo sapiens) (UniProt P29320); assay: Inhibition of EPHA3 (unknown origin) at 1 uM relative to control
[6] = target: Tyrosine-protein kinase CSK (Homo sapiens) (UniProt P41240); assay: Inhibition of CSK (unknown origin) at 1 uM relative to control
[7] = target: Fibroblast growth factor receptor 2 (Homo sapiens) (UniProt P21802); assay: Inhibition of FGFR2 (unknown origin) at 1 uM relative to control
[8] = target: Receptor tyrosine-protein kinase erbB-2 (Homo sapiens) (UniProt P04626); assay: Inhibition of HER2 (unknown origin) at 1 uM relative to control
[9] = target: Macrophage colony-stimulating factor 1 receptor (Homo sapiens) (UniProt P07333); assay: Inhibition of CSF1R (unknown origin) at 1 uM relative to control
[10] = target: Vascular endothelial growth factor receptor 2 (Homo sapiens) (UniProt P35968); assay: Inhibition of KDR (unknown origin) at 1 uM relative to control
[11] = target: Tyrosine-protein kinase Yes (Homo sapiens) (UniProt P07947); assay: Inhibition of YES (unknown origin) at 1 uM relative to control
[12] = target: Tyrosine-protein kinase Mer (Homo sapiens) (UniProt Q12866); assay: Inhibition of MER (unknown origin) at 1 uM relative to control
[13] = target: Tyrosine-protein kinase SYK (Homo sapiens) (UniProt P43405); assay: Inhibition of SYK (unknown origin) at 1 uM relative to control
[14] = target: Tyrosine-protein kinase JAK1 (Homo sapiens) (UniProt P23458); assay: Inhibition of JAK1 (unknown origin) at 1 uM relative to control
[15] = target: Tyrosine-protein kinase receptor UFO (Homo sapiens) (UniProt P30530); assay: Inhibition of AXL (unknown origin) at 1 uM relative to control
[16] = target: Vascular endothelial growth factor receptor 1 (Homo sapiens) (UniProt P17948); assay: Inhibition of FLT1 (unknown origin) at 1 uM relative to control
[17] = target: Tyrosine-protein kinase JAK2 (Homo sapiens) (UniProt O60674); assay: Inhibition of JAK2 (unknown origin) at 1 uM relative to control
[18] = target: Proto-oncogene tyrosine-protein kinase receptor Ret (Homo sapiens) (UniProt P07949); assay: Inhibition of RET (unknown origin) at 1 uM relative to control
[19] = target: Epidermal growth factor receptor (Homo sapiens) (UniProt P00533); assay: Inhibition of EGFR (unknown origin) at 1 uM relative to control
[20] = target: Macrophage-stimulating protein receptor (Homo sapiens) (UniProt Q04912); assay: Inhibition of RON (unknown origin) at 1 uM relative to control
[21] = target: Fibroblast growth factor receptor 4 (Homo sapiens) (UniProt P22455); assay: Inhibition of FGFR4 (unknown origin) at 1 uM relative to control
[22] = target: Platelet-derived growth factor receptor beta (Homo sapiens) (UniProt P09619); assay: Inhibition of PDGFRbeta (unknown origin) at 1 uM relative to control
[23] = target: Tyrosine-protein kinase receptor TYRO3 (Homo sapiens) (UniProt Q06418); assay: Inhibition of TYRO3(unknown origin) at 1 uM relative to control
[24] = target: Mast/stem cell growth factor receptor Kit (Homo sapiens) (UniProt P10721); assay: Inhibition of KIT (unknown origin) at 1 uM relative to control
[25] = target: Tyrosine-protein kinase JAK3 (Homo sapiens) (UniProt P52333); assay: Inhibition of JAK3 (unknown origin) at 1 uM relative to control
[26] = target: Tyrosine-protein kinase ABL2 (Homo sapiens) (UniProt P42684); assay: Inhibition of ABL2 (unknown origin) at 1 uM relative to control
[27] = target: Tyrosine-protein kinase BTK (Homo sapiens) (UniProt Q06187); assay: Inhibition of BTK (unknown origin) at 1 uM relative to control
[28] = target: Tyrosine-protein kinase ITK/TSK (Homo sapiens) (UniProt Q08881); assay: Inhibition of ITK (unknown origin) at 1 uM relative to control
[29] = target: Tyrosine-protein kinase Fgr (Homo sapiens) (UniProt P09769); assay: Inhibition of FGR (unknown origin) at 1 uM relative to control
[30] = target: Angiopoietin-1 receptor (Homo sapiens) (UniProt Q02763); assay: Inhibition of TIE2 (unknown origin) at 1 uM relative to control
[31] = target: Vascular endothelial growth factor receptor 3 (Homo sapiens) (UniProt P35916); assay: Inhibition of FLT4 (unknown origin) at 1 uM relative to control
[32] = target: Focal adhesion kinase 1 (Homo sapiens) (UniProt Q05397); assay: Inhibition of FAK (unknown origin) at 1 uM relative to control
[33] = target: Tyrosine-protein kinase ZAP-70 (Homo sapiens) (UniProt P43403); assay: Inhibition of ZAP70 (unknown origin) at 1 uM relative to control
[34] = target: Platelet-derived growth factor receptor alpha (Homo sapiens) (UniProt P16234); assay: Inhibition of PDGFRalpha (unknown origin) at 1 uM relative to control
[35] = target: Fibroblast growth factor receptor 3 (Homo sapiens) (UniProt P22607); assay: Inhibition of FGFR3 (unknown origin) at 1 uM relative to control
[36] = target: Non-receptor tyrosine-protein kinase TYK2 (Homo sapiens) (UniProt P29597); assay: Inhibition of TYK2 (unknown origin) at 1 uM relative to control
[37] = target: Receptor tyrosine-protein kinase erbB-4 (Homo sapiens) (UniProt Q15303); assay: Inhibition of HER4 (unknown origin) at 1 uM relative to control
[38] = target: Receptor-type tyrosine-protein kinase FLT3 (Homo sapiens) (UniProt P36888); assay: Inhibition of FLT3 (unknown origin) at 1 uM relative to control
[39] = target: Hepatocyte growth factor receptor (Homo sapiens) (UniProt P08581); assay: Inhibition of MET (unknown origin) at 1 uM relative to control

CC[C@H]1Nc2ccc3ncc(n3n2)C(=O)NC2(CC2)COc2ccc(F)cc21
inhibition [1]: 94.1% | inhibition [2]: 100% | inhibition [3]: 83.1% | inhibition [4]: 81.7% | inhibition [5]: 90.2% | inhibition [6]: 18.4% | inhibition [7]: 76.7% | inhibition [8]: 10.4% | inhibition [9]: 83.3% | inhibition [10]: 5.15% | inhibition [11]: 69.4% | inhibition [12]: 79.8% | inhibition [13]: -0.11% | inhibition [14]: 86.2% | inhibition [15]: 86.7% | inhibition [16]: 9.56% | inhibition [17]: 99.6% | inhibition [18]: 82.3% | inhibition [19]: 24.7% | inhibition [20]: 2.5% | inhibition [21]: 27.5% | inhibition [22]: 24.2% | inhibition [23]: 23.7% | inhibition [24]: 9.04% | inhibition [25]: 79.6% | inhibition [26]: 91.9% | inhibition [27]: 85.7% | inhibition [28]: 28.1% | inhibition [29]: 95.3% | inhibition [30]: 60.1% | inhibition [31]: 3.54% | inhibition [32]: 101% | inhibition [33]: -0.88% | inhibition [34]: 37.6% | inhibition [35]: 11.2% | inhibition [36]: 43.3% | inhibition [37]: -3.6% | inhibition [38]: 50.8% | inhibition [39]: 14.2%
